This note sets out measurements from US20260382689A1, “METHODS OF PREVENTING AND/OR TREATING SIDE EFFECTS ASSOCIATED WITH ANTI-CANCER AGENTS USING NON-NATURALLY OCCURRING MELANOCORTIN ANALOGS WITH ANTI-GDF-15 ANTIBODIES” (published 2026).

Amino acid sequences for entries named in this document (tags omitted).
UniProt P33032, whole entry: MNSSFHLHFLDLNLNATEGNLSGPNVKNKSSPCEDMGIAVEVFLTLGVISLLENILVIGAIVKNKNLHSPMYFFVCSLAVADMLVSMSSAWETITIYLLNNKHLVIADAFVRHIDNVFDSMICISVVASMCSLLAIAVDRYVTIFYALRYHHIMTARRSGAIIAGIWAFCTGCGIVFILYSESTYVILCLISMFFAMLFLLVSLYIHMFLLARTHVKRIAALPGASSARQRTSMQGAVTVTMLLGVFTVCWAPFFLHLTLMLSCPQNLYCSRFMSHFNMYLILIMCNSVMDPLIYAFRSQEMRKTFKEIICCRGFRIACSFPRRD
UniProt Q01726, whole entry: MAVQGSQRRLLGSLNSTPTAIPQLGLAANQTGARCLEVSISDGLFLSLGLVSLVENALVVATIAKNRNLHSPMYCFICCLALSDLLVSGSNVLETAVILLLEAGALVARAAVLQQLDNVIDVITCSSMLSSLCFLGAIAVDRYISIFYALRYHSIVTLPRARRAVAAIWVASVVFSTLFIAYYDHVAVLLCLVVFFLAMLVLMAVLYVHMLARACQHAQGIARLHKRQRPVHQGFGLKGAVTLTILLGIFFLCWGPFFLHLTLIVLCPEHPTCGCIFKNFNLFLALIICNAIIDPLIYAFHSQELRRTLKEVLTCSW
UniProt P32245, whole entry: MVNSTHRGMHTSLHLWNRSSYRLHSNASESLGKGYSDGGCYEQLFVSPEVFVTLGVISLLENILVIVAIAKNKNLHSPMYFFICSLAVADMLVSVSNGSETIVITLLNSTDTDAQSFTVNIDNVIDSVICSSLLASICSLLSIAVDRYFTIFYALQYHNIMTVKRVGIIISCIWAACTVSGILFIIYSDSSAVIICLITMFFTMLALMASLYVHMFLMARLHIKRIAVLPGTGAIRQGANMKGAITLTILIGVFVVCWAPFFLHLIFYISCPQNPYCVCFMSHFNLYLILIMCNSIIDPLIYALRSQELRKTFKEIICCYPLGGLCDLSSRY
UniProt P41968, whole entry: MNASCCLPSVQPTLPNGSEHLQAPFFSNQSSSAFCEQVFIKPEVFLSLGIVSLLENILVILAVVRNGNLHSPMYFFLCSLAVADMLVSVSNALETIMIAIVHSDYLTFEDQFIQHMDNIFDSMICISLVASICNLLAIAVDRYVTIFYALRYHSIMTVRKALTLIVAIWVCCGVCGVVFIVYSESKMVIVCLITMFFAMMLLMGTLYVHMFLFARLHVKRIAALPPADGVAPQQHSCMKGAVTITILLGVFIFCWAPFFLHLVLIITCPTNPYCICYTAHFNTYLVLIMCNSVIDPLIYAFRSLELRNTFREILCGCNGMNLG

Read-outs that look alike come from different tables or passages of the source. A value given as a limit tells only on which side of the number the result lay.

Experiment [1] addresses melanocortin 5 receptor (MC5R) (Homo sapiens, UniProt P33032). Description: cAMP accumulation assay (HTRF), agonist and/or antagonist activity at MC5R (Example 1, Table 14). The following applies: dose-response against MC5R. (Cyclic AMP is a second messenger, typically raised through Gs and lowered through Gi signalling.)
In experiment [2] the target is melanocortin 1 receptor (MC1R) (Homo sapiens, UniProt Q01726). As to the kind of experiment: cAMP accumulation assay (HTRF), agonist and/or antagonist activity at MC1R (Example 1, Table 11). The following applies: dose-response; for EC50: cAMP.
The target of experiment [3] is human melanocortin 4 receptor (MC4R) (Homo sapiens, UniProt P32245). As to the kind of experiment: cAMP accumulation assay (HTRF), antagonist and/or agonist activity at MC4R (Example 1, Table 13, FIGS. 5-8).
For experiment [4], the target named is human melanocortin 3 receptor (MC3R) (Homo sapiens, UniProt P41968). Description: cAMP accumulation assay (HTRF), antagonist and/or agonist activity at MC3R (Example 1, Table 12, FIGS. 1-4).
Where [5] appears, read: Table 13, dose-response against MC4R, cAMP.
Setting [6] is: MC3R, antagonist activity, dose-response, cAMP.
Setting [7] is: read-out: IC50 (antagonist activity on MC3R), cAMP levels, antagonist.
The mark [8] stands for this setting: MC3R, antagonist activity, dose-response.

`CCCC[C@H](NC(C)=O)C(=O)N[C@H]1CC(=O)NCCCC[C@@H](C(=O)N[C@@H](C(=O)N2CCC[C@@H]2C(N)=O)C(C)C)NC(=O)[C@H](Cc2c[nH]c3ccccc23)NC(=O)[C@H](CCCNC(=N)N)NC(=O)[C@@H](Cc2ccc3ccccc3c2)NC(=O)[C@H](C)NC1=O`: the EC50 in experiment [1] was found to be 0.04 nM; in experiment [2], 34 nM. Further, the IC50 in experiment [3] (setting [5]) was 98 nM; in experiment [3] (read-out: IC50 (antagonist activity on MC4R), cAMP levels, antagonist), under 10000 nM; in experiment [4] (setting [6]), 3.29 nM; in experiment [4] (setting [7]), under 10000 nM.
Regarding `CSCC[C@@H](NC(C)=O)C(=O)N[C@H]1CC(=O)NCCCC[C@@H](C(=O)N[C@@H](C(=O)N2CCC[C@@H]2C(N)=O)C(C)C)NC(=O)[C@H](Cc2c[nH]c3ccccc23)NC(=O)[C@H](CCCNC(=N)N)NC(=O)[C@@H](Cc2ccc3ccccc3c2)NC(=O)[C@@H]2CCCN2C1=O`, the results for the EC50 in experiment [1] and in experiment [2] were 1.8 nM and 450 nM, respectively. The IC50 was determined as 680 nM in experiment [3] (setting [5]) and 2.64 nM in experiment [4] (setting [6]).
For the compound `CCCC[C@H](NC(C)=O)C(=O)N[C@H]1CC(=O)NCCCC[C@@H](C(=O)N[C@H](CCCCN)C(=O)N2CCC[C@@H]2C(N)=O)NC(=O)[C@H](Cc2c[nH]c3ccccc23)NC(=O)[C@H](CCCNC(=N)N)NC(=O)[C@@H](Cc2ccc3ccccc3c2)NC(=O)[C@@H]2CCCN2C1=O`, the EC50 amounted to 0.05 nM in experiment [1] and 0.13 nM in experiment [2]. Moreover, the figures for the IC50 in experiment [3] (setting [5]) and in experiment [4] (setting [6]) were 2.1 nM and 0.74 nM, respectively.
The like results for `CCCC[C@H](NC(C)=O)C(=O)N[C@H]1CC(=O)NCCCC[C@@H](C(=O)N[C@H](CC(N)=O)C(=O)N2CCC[C@@H]2C(N)=O)NC(=O)[C@H](Cc2c[nH]c3ccccc23)NC(=O)[C@H](CCCNC(=N)N)NC(=O)[C@@H](Cc2ccc3ccccc3c2)NC(=O)[C@@H]2CCCN2C1=O` were, in that order, 0.04 nM, 4 nM, 10 nM and 1.05 nM.
Consider `CCCC[C@H](NC(C)=O)C(=O)N[C@H]1CC(=O)NCCCC[C@@H](C(=O)N[C@H](CC(C)C)C(=O)N2CCC[C@@H]2C(N)=O)NC(=O)[C@H](Cc2c[nH]c3ccccc23)NC(=O)[C@H](CCCNC(=N)N)NC(=O)[C@@H](Cc2ccc3ccccc3c2)NC(=O)[C@H](Cc2c[nH]cn2)NC(=O)[C@H](Cc2ccccc2)NC1=O`, for which the results for the EC50 in experiment [1] and in experiment [2] were 2.04 nM and 0.86 nM, respectively. Besides, the “Hill Coefficient” value in experiment [1] worked out at 1.05; in experiment [2], 1.07; in experiment [3] (setting [5]), 1.46; in experiment [4] (setting [8]), 1.08. Also, the “Top (%)” value in experiment [1] (top of curve) turned out to be 101.67%; in experiment [3] (Table 13, dose-response against MC4R, cAMP, top of curve), 94.09%. Moreover, the results for the Top in experiment [2] and in experiment [4] (setting [8]) were 99.70% and 89.22%, respectively. Besides, the IC50 worked out at 24.4 nM in experiment [3] (setting [5]) and 20.4 nM in experiment [4] (setting [6]).
As to `CC(=O)N[C@@H](C(=O)N[C@H]1CC(=O)NCCCC[C@@H](C(=O)N[C@@H](C(=O)N2CCC[C@@H]2C(N)=O)C(C)C)NC(=O)[C@H](Cc2c[nH]c3ccccc23)NC(=O)[C@H](CCCNC(=N)N)NC(=O)[C@@H](Cc2ccc3ccccc3c2)NC(=O)[C@@H]2CCCN2C1=O)C(C)C`, the figures for the EC50 in experiment [1] and in experiment [2] were 15 nM and 430 nM, respectively. For the same compound, the IC50 in experiment [3] (setting [5]) worked out at 160 nM; in experiment [4] (setting [6]) it was 2.97 nM.
With `CCCC[C@H](NC(C)=O)C(=O)N[C@@H](CCCC)C(=O)N[C@H]1CC(=O)NCCCC[C@@H](C(=O)N[C@@H](C(=O)N2CCC[C@@H]2C(N)=O)C(C)C)NC(=O)[C@H](Cc2c[nH]c3ccccc23)NC(=O)[C@H](CCCNC(=N)N)NC(=O)[C@@H](Cc2ccc3ccccc3c2)NC(=O)[C@@H]2CCCN2C1=O`, the EC50 in experiment [1] was 0.08 nM; in experiment [2], 110 nM. The IC50 was 350 nM in experiment [3] (setting [5]) and 10.4 nM in experiment [4] (setting [6]).
The corresponding values for `CCCC[C@H](NC(C)=O)C(=O)N[C@H]1CSSC(C)(C)[C@@H](C(=O)N[C@@H](C(=O)N2CCC[C@@H]2C(N)=O)C(C)C)NC(=O)[C@H](Cc2c[nH]c3ccccc23)NC(=O)[C@H](CCCNC(=N)N)NC(=O)[C@@H](Cc2ccc3ccccc3c2)NC(=O)[C@@H]2CCCN2C1=O` are 15 nM, 27 nM, 29 nM and 9.31 nM.
The corresponding values for `CC(=O)N[C@H](CCCNC(=N)N)C(=O)N[C@H]1CC(=O)NCCCC[C@@H](C(=O)N[C@@H](C(=O)N2CCC[C@@H]2C(N)=O)C(C)C)NC(=O)[C@H](Cc2c[nH]c3ccccc23)NC(=O)[C@H](CCCNC(=N)N)NC(=O)[C@@H](Cc2ccc3ccccc3c2)NC(=O)[C@@H]2CCCN2C1=O` are 2.6 nM, over 1000 nM, 89 nM and 2.98 nM.
The corresponding values for `CCCC[C@H](NC(C)=O)C(=O)N[C@H]1CC(=O)NCCCC[C@@H](C(=O)N[C@@H](C(=O)N[C@H](CC(=O)O)C(N)=O)C(C)C)NC(=O)[C@H](Cc2c[nH]c3ccccc23)NC(=O)[C@H](CCCNC(=N)N)NC(=O)[C@@H](Cc2ccc3ccccc3c2)NC(=O)[C@@H]2CCCN2C1=O` are 1.4 nM, 58 nM, 520 nM and 7 nM.
For the compound `CCCC[C@H](NC(C)=O)C(=O)N[C@H]1CC(=O)NCCC[C@H](C(=O)N[C@@H](C(=O)N2CCC[C@@H]2C(N)=O)C(C)C)NC(=O)[C@H](Cc2c[nH]c3ccccc23)NC(=O)[C@H](CCCNC(=N)N)NC(=O)[C@@H](Cc2ccc3ccccc3c2)NC(=O)[C@@H]2CCCN2C1=O`, the EC50 in experiment [1] came to 42 nM; in experiment [2] it was 430 nM. Besides, the IC50 in experiment [3] (setting [5]) was 920 nM; in experiment [4] (setting [6]) it was 480 nM.
`CCCC[C@H](NC(C)=O)C(=O)N[C@H]1CC(=O)NCCCC[C@@H](C(=O)N[C@@H](C(=O)N2CCC[C@@H]2C(N)=O)C(C)C)NC(=O)[C@H](Cc2c[nH]c3ccccc23)NC(=O)[C@H](C)NC(=O)[C@@H](Cc2ccc3ccccc3c2)NC(=O)[C@@H]2CCCN2C1=O`: the EC50 in experiment [1] is 85 nM; in experiment [2], over 1000 nM. Further, the IC50 in experiment [3] (setting [5]) is over 1000 nM; in experiment [4] (setting [6]) it was 580 nM; in experiment [4] (setting [7]), under 10000 nM.
As for `CC(=O)NCC(=O)N[C@H]1CC(=O)NCCCC[C@@H](C(=O)N[C@@H](C(=O)N2CCC[C@@H]2C(N)=O)C(C)C)NC(=O)[C@H](Cc2c[nH]c3ccccc23)NC(=O)[C@H](CCCNC(=N)N)NC(=O)[C@@H](Cc2ccc3ccccc3c2)NC(=O)[C@@H]2CCCN2C1=O`, the EC50 is 30 nM in experiment [1] and over 1000 nM in experiment [2]. Moreover, the results for the IC50 in experiment [3] (setting [5]) and in experiment [4] (setting [6]) were 470 nM and 12.7 nM, respectively.
The corresponding values for `CCCC[C@H](NC(C)=O)C(=O)N[C@@H](CCCC)C(=O)N[C@@H](CCCC)C(=O)N[C@@H](CCCC)C(=O)N[C@H]1CC(=O)NCCCC[C@@H](C(=O)N[C@@H](C(=O)N2CCC[C@@H]2C(N)=O)C(C)C)NC(=O)[C@H](Cc2c[nH]c3ccccc23)NC(=O)[C@H](CCCNC(=N)N)NC(=O)[C@@H](Cc2ccc3ccccc3c2)NC(=O)[C@@H]2CCCN2C1=O` are 0.35 nM, 200 nM, 250 nM and 251 nM.
The like results for `CCCC[C@H](NC(C)=O)C(=O)N[C@H]1CC(=O)NCCCC[C@@H](C(=O)N[C@@H](C(=O)N[C@@H](C(=O)N2CCC[C@@H]2C(N)=O)C(C)C)C(C)C)NC(=O)[C@H](Cc2c[nH]c3ccccc23)NC(=O)[C@H](CCCNC(=N)N)NC(=O)[C@@H](Cc2ccc3ccccc3c2)NC(=O)[C@@H]2CCCN2C1=O` were, in that order, 3.8 nM, 82 nM, 33 nM and 23 nM.
For `CCCC[C@H](NC(C)=O)C(=O)N[C@H]1CC(=O)NCCCC[C@@H](C(=O)N[C@@H](CCCCN)C(=O)N2CCC[C@@H]2C(N)=O)NC(=O)[C@H](Cc2c[nH]c3ccccc23)NC(=O)[C@H](CCCNC(=N)N)NC(=O)[C@@H](Cc2ccc3ccccc3c2)NC(=O)[C@@H]2CCCN2C1=O`, the EC50 was 0.19 nM in experiment [1] and 3.5 nM in experiment [2]. The IC50 is 6 nM in experiment [3] (setting [5]) and 1.59 nM in experiment [4] (setting [6]).
With `CCCC[C@H](NC(C)=O)C(=O)N[C@H]1CC(=O)NCCCC[C@@H](C(=O)N[C@@H](C(=O)N[C@@H](C(=O)N[C@@H](C(=O)N2CCC[C@@H]2C(N)=O)C(C)C)C(C)C)C(C)C)NC(=O)[C@H](Cc2c[nH]c3ccccc23)NC(=O)[C@H](CCCNC(=N)N)NC(=O)[C@@H](Cc2ccc3ccccc3c2)NC(=O)[C@@H]2CCCN2C1=O`, the EC50 in experiment [1] was found to be 0.06 nM; in experiment [2], 110 nM. Besides, the values for the half-inhibitory concentration (IC50) in experiment [3] (setting [5]) and in experiment [4] (setting [6]) were 43 nM and 7.68 nM, respectively.
With `CCCC[C@H](NC(C)=O)C(=O)N[C@H]1CC(=O)NCCCC[C@@H](C(=O)N[C@@H](C(=O)N2CCC[C@@H]2C(N)=O)C(C)C)NC(=O)[C@H](Cc2c[nH]c3ccccc23)NC(=O)[C@H](CCCN)NC(=O)[C@@H](Cc2ccc3ccccc3c2)NC(=O)[C@@H]2CCCN2C1=O`, the EC50 in experiment [1] worked out at 9.1 nM; in experiment [2], 430 nM. Also, the IC50 in experiment [3] (setting [5]) is over 1000 nM; in experiment [4] (setting [6]), 290 nM; in experiment [4] (setting [7]), under 10000 nM.
Consider `CCCC[C@H](NC(C)=O)C(=O)N[C@H]1CC(=O)NCCCC[C@@H](C(=O)N[C@@H](CC(N)=O)C(=O)N2CCC[C@@H]2C(N)=O)NC(=O)[C@H](Cc2c[nH]c3ccccc23)NC(=O)[C@H](CCCNC(=N)N)NC(=O)[C@@H](Cc2ccc3ccccc3c2)NC(=O)[C@@H]2CCCN2C1=O`, for which the EC50 turned out to be 0.12 nM in experiment [1] and 4.7 nM in experiment [2]. In addition, the IC50 in experiment [3] (setting [5]) stood at 15 nM; in experiment [4] (setting [6]), 1.15 nM.

Usually EC50 stands for the concentration needed to bring the measured effect to its halfway point. What is called IC50 is the midpoint of a concentration-inhibition curve.
